{"source": "patent US20200024330A1", "about": "(published 2020)", "binders": {"B1": {"name": "1456_P20 (PG20) (antibody, V domains shown)", "VH": "QVRLVQSGPEVKKPGSSVTVSCQASGGTFSSYAFTWVRQAPGQGLEWLGMVTPIFGEAKYSQRFEGRVTITADESTSTTSIELRGLTSEDTAIYYCARDRRAVPIATDNWLDPWGQGTLVTVSS", "VL": "DIQLTQSPSSLSASVGDRVSITCRASQTINNYLNWYQQTPGKAPKLLIYGASNLQNGVPSRFSGSGSGTDFTLTISSLQPEDFATYYCQQSFSTPRTFGQGTRLDIKR"}}, "biological_target": "aMLV envelope protein on pseudotyped virus (negative control) (aMLV)", "test": "cell-based or functional assay", "data": [{"binder": "B1", "values": [{"measurement": "IC50, pseudovirus neutralization, 1 hour Virus/Ab Incubation", "result": "> 50", "unit": "µg/mL"}, {"measurement": "IC50, pseudovirus neutralization, 18 hour Virus/Ab Incubation", "result": "> 50", "unit": "µg/mL"}]}]}
